The source of these data is article PMC6176987, “Correction of cognitive deficits in mouse models of Down syndrome by a pharmacological inhibitor of DYRK1A” (Disease Models & Mechanisms, 2018).

By UniProt entry, the sequences of proteins in these tests, tags left out. Where a name states a change or a piece, a line headed by the entry shows the natural chain unless it says otherwise.
UniProt O35493: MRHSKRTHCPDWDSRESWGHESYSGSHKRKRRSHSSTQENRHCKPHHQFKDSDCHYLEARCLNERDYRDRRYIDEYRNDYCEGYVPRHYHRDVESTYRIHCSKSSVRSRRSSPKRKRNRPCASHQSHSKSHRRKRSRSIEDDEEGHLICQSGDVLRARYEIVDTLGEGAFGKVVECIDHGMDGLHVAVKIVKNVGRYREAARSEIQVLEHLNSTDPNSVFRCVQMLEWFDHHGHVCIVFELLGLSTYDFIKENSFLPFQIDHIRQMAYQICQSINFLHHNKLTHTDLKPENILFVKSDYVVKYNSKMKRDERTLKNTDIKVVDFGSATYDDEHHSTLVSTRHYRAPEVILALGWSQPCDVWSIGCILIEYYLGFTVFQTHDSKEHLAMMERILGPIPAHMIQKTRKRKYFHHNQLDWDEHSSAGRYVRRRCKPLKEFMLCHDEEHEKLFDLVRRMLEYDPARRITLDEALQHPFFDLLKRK

The IC50 is the concentration that inhibits the measured activity by half.

The target in one test is T1, DYRK3 (Homo sapiens, UniProt O43781).
T1 sequence (O43781 1-588): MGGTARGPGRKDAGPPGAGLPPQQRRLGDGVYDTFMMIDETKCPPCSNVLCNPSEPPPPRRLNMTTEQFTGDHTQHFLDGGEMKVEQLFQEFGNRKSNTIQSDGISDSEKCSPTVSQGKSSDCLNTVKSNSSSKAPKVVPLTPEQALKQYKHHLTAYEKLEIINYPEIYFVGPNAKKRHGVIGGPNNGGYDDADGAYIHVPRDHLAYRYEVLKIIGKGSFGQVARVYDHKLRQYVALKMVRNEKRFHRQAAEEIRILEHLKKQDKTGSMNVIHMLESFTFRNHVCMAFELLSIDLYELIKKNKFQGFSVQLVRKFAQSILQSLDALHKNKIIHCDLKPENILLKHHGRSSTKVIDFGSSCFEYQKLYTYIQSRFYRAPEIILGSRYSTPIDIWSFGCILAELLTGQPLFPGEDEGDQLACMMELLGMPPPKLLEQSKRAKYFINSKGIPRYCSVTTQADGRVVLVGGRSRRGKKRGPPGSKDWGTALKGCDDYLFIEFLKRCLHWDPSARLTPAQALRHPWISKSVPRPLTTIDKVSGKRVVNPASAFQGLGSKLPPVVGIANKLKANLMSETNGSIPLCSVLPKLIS
The test is described as follows: Recombinant protein kinase assay, DYRK3.

The target of a further test is CLK4 (Mus musculus, UniProt O35493). In words: Recombinant protein kinase assay, CLK4.

As for `O=C1NC(Nc2ccccc2)=N/C1=C\c1ccc2c(c1)OCO2` [L41], the IC50 at DYRK3 worked out at 230 nM; at CLK4 it was 23 nM.
